Source: US20080305519A1, “Biochemical method for specific protein labeling” (priority 2006, published 2008)

System: tubulin
Test: Re-assembly of labeled tubulin to high MW tubulin oligomers
Format: biochemical, rat
Conditions: 10 μM; prolonged incubation at 37° C.; data not shown

COc1cc2c(c(OC)c1OC)-c1ccc(OC)c(=O)cc1[C@@H](NC(C)=O)CC2 [colchicine]
formation of high MW tubulin oligomers: completely abolished
